Results published in patent US20220023401A1 (priority 2020, published 2022).
Several values for one entry are separate records, joined by “and”; a condition that tells them apart may be missing. Equal values may be shown once.

Assays:
[1] = test system: anti-Aβ antibodies in sera of immunized patients; type: binding, human
[2] = test system: antisera from immunized Cynomolgus macaques; type: binding; parameters: Specificity analysis of antisera (ELISA reactivity with peptide): unit not given here
Aβ1-42 = test system: Aβ1-42; parameters: species or system guinea pigs; details: guinea pig, in vivo
[3] = test system: sera from vaccinated baboons (anti-Aβ antibodies); type: binding

Sequence | reaction of 10-mer peptide with immunized sera [1] | reactivity of 10-mer peptide with macaque immune sera [2] | immunogenicity of the peptide on its own (Aβ1-42) | reaction of 10-mer peptide with immune sera [3] | Specificity analysis of antisera (ELISA reactivity with peptide) [2] | ELISA Titer (Log10) [3]
DAEFRHDSGY [SEQ ID NO: 6, Aβ1-10] | reacted most strongly | strong specificity | non-immunogenic | reacted strongly |  | 
EVHHQKLVFF (PEPTIDE (1)..(10) Abeta 11-20 or APP 770(E682-F691); listed as Homo sapiens) [SEQ ID NO: 26] |  |  |  |  | 0.044 and 0.051 and 0.042 | 0.17 Log10 and 0.26 Log10 and 0.13 Log10
VHHQKLVFFA (PEPTIDE (1)..(10) Abeta 12-21 or APP 770(V683-A692); listed as Homo sapiens) [SEQ ID NO: 27] |  |  |  |  | 0.046 and 0.082 and 0.057 and 0.083 | 0.16 Log10 and 0.23 Log10 and 0.12 Log10 and 0.11 Log10
